## AlphaSeq binding of Ab-91 heavy chain variants to a spike HR2 peptide

Antigen: PDVDLGDISGINAS, a 14-residue peptide of the SARS-CoV-2 spike HR2 region.

Each scFv is VL, three GGGGS repeats, VH, as in the parent Ab-91, and differs from it in the CDRs of the heavy chain only.
VL: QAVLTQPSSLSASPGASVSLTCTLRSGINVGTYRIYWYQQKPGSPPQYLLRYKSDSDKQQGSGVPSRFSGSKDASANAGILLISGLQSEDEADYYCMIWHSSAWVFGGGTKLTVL
VH: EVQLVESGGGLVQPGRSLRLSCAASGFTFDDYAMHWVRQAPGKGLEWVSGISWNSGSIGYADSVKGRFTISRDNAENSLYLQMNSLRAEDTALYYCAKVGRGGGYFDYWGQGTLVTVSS

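Phage display of a naive human antibody library on the peptide gave the parent. AAYL51 was designed without a model: most single CDR substitutions and a random sample of double and triple ones. The assay is AlphaSeq: two haploid yeast populations carry antibody and antigen on their surface. Binding brings cells together so that they mate, and sequencing counts the barcode pairs among the diploids. Each replicate has its own calibration line, from reference interactions of the BCL2 family. The assay was run in three technical replicates.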

Each variant is given by its three heavy chain CDRs, as the data file delimits them; those of the parent are GFTFDDYAMH, GISWNSGSIGYADSVK, VGRGGGYFDY.
The read-out is the apparent dissociation constant on a log10 scale (nM): the lower, the stronger.
The mean shown is taken over the replicates in which the pair was detected.
An entry "ND" has no value in the source: the pair was not observed among the diploids in that replicate. This suggests poor binding but is not conclusive.
In this assay the parent's reference entry averaged 1.86; its copy inside this library read 0.88.
Nonspecific signal, from three strains lacking the peptide, appeared in 21% of pairings of library AAYL51, centred on 4.54 (5% of these signals below 3.26); values are not corrected for it. The control count says in how many pairings with the empty strains this scFv gave a signal, with their mean in brackets.

| # | CDR-H1 | CDR-H2 | CDR-H3 | log10 Kd (nM) by replicate | mean log10 Kd (nM) | control signals |
|---|---|---|---|---|---|---|
| 1 | GFTFDDYCMH | GISWNSGSIMCADSVK | VGRGGGYFDY | ND / 5.20 / ND | 5.20 | 2 of 9 (4.77) |
| 2 | GFTFDDYAMI | GISWNSGSIGVADSVK | NGRGGGYFDY | 4.07 / 4.79 / 5.07 | 4.64 | 7 of 9 (4.78) |
| 3 | GFTFDDYAMH | GISWNSGSIGYADSYK | VGRWGGYFDY | ND / ND / ND | ND | 0 of 9 |
| 4 | GFTFDDYAMH | GISWNDGSIGYADSVK | VGRGGGKFDY | ND / ND / ND | ND | 3 of 9 (2.86) |
| 5 | GFTFDDYAMH | GESWNSGSIGYADRVK | VGRGGPYFDY | 5.40 / ND / 4.72 | 5.06 | 3 of 9 (4.81) |
| 6 | GFTFDDYAMH | GSSWNSGQIGYADSVK | VGRGGGYFDY | ND / ND / ND | ND | 1 of 9 (3.65) |
| 7 | GFTFDDYAMH | GISWNSGSINYADSVK | VGRGGGYKDY | 3.83 / 5.48 / ND | 4.66 | 4 of 9 (4.95) |
| 8 | GFTFDDYAMH | GISWNSGSIGYADSVG | VGRGGKYFEY | 6.15 / 4.76 / ND | 5.46 | 2 of 9 (5.05) |
| 9 | GFTFQDYIQH | GISWNSGSIGYADSVK | VGRGGGYFDY | 4.29 / ND / 5.10 | 4.70 | 1 of 9 (3.80) |
| 10 | GFTFDDYAMH | GISWNSGSIGYADSVK | VGRKGGVIDY | ND / ND / ND | ND | 0 of 9 |
| 11 | GFTFDDYAMH | GISWGSGSQGYADSVR | VGRGGGYFDY | 2.15 / 2.44 / 2.56 | 2.38 | 1 of 9 (4.00) |
| 12 | GFTFDDWAMM | GISWNSGSIGYADSVK | VGRGGGYFDY | ND / ND / ND | ND | 0 of 9 |
| 13 | GFTFDDYAMH | GISWNSGSIGYADSVK | LGRGGGYFDV | 2.76 / 3.04 / 3.98 | 3.26 | 4 of 9 (4.02) |
| 14 | GFTFDDYAMH | GISWISGSLGYADSVK | VGRGGGYFDQ | ND / ND / ND | ND | 1 of 9 (3.11) |
| 15 | GFTFADYAMH | GISWNSGSIGYADSVK | VGRGGGYFIG | ND / 5.84 / ND | 5.84 | 0 of 9 |
| 16 | PFTPDDYAMH | GISWNSGIIGYADSVK | VGRGGGYFDY | 0.95 / 1.01 / 0.69 | 0.88 | 0 of 9 |
| 17 | GFTFDDYAMH | GISYNSISIGYAYSVK | VGRGGGYFDY | 2.51 / 2.79 / 1.44 | 2.25 | 0 of 9 |
| 18 | GFTFDYYAMH | GISWNRGSIAYADSVK | VGRGGGYFDY | ND / ND / ND | ND | 0 of 9 |
| 19 | GFTFDDYAMH | GISWNSGSICYCDSVK | VGRGGGYFDY | 5.34 / ND / 3.62 | 4.48 | 3 of 9 (5.00) |
| 20 | GFTFRDYAMH | GISWNSGSIGYKDSVK | EGRGGGYFDY | 1.95 / 2.24 / 1.80 | 2.00 | 4 of 9 (4.83) |
| 21 | GFTFDDKAMH | GISWNSGSIGYADSVK | VGRGGGYFDY | ND / ND / ND | ND | 0 of 9 |
| 22 | GFTFDDYAMH | GISWQSGSIGYADKVK | VGDGGGYFDY | 3.21 / 3.43 / 2.94 | 3.19 | 3 of 9 (3.66) |
| 23 | GFTFDDYAMH | GISWNSGSIGYAASVK | VGRGGGYFDY | 3.68 / 5.59 / ND | 4.64 | 4 of 9 (4.67) |
| 24 | GGTFDDYAMH | GISWNSGSIPYADSVK | VGRGGQYFDY | ND / ND / ND | ND | 3 of 9 (4.12) |
| 25 | CFTFDDYAMH | GISWNSGSIGYADSVK | VGRGGGCFDF | 3.38 / ND / ND | 3.38 | 1 of 9 (3.82) |
| 26 | GFTFDDYAMH | GISRNKGSIGYIDSVK | VGRGGGYFDY | 3.82 / ND / ND | 3.82 | 1 of 9 (5.44) |
| 27 | GFTFDDYAMH | GISWNEGSIGYAISVK | VGRGGCYFDY | ND / 5.97 / 4.19 | 5.08 | 3 of 9 (4.69) |
| 28 | PFTFDDYAMH | GISWSSGSIGYADSVK | VGRGGGYFDY | 5.97 / ND / ND | 5.97 | 3 of 9 (4.71) |
| 29 | GFTFDDYAMH | GISWNVGSIGYADSVK | VGRGKGYGDY | 4.62 / ND / 4.82 | 4.72 | 1 of 9 (5.95) |
| 30 | GFTFDDYAMH | GISGNCGSIGYADSVK | VGRGGGYFDF | 3.16 / 2.87 / 3.04 | 3.02 | 2 of 9 (4.34) |
| 31 | GFTFDDYAMH | GISWNSGSIGRADSVM | VGRGGFYFDY | ND / ND / ND | ND | 3 of 9 (4.63) |
| 32 | GFTFDDYSMH | TISWNSDSIGYADSVK | VGRGGGYFDY | 3.91 / ND / ND | 3.91 | 0 of 9 |
| 33 | GFTFDDYTMH | GISWNSGSIGYADSVK | VGHGGGYFDY | ND / ND / ND | ND | 1 of 9 (4.48) |
| 34 | GFTGDDYAMH | GSSWNSGSIGYACSVK | VGRGGGYFDY | ND / ND / ND | ND | 2 of 9 (2.92) |
| 35 | TFTFDDYVMH | GISWNSGSIGYADSVK | VGRDGGYFDY | ND / ND / 4.19 | 4.19 | 4 of 9 (4.56) |
| 36 | GFTFDDYAPH | GISWNSGSIGYTDSVK | RGRGGGYFDY | ND / ND / 5.04 | 5.04 | 2 of 9 (4.59) |
| 37 | GFTFDDYAMH | GINWNSGAIGYADSVK | EGRGGGYFDY | 1.03 / 0.90 / 0.19 | 0.71 | 1 of 9 (4.96) |
| 38 | GFTFDDYAPC | GISWNSGSIGYATSVK | VGRGGGYFDY | ND / ND / ND | ND | 0 of 9 |
| 39 | GFTFDDYKGH | GIEWNSGSIGYADSVK | VGRGGGYFDY | ND / ND / ND | ND | 1 of 9 (2.43) |
| 40 | GFTFDDYAMH | LISWNSGDIGYADSPK | VGRGGGYFDY | ND / ND / ND | ND | 0 of 9 |
| 41 | GFTFGDYIMH | GISLNSGSIGYADSVK | VGRGGGYFDY | 4.36 / 5.81 / ND | 5.09 | 5 of 9 (4.37) |
| 42 | GFTFTDYVMH | GISWNSGSIGYADSVK | VGRGGGYFYY | ND / ND / ND | ND | 0 of 9 |
| 43 | GFTFDDYAMA | GISWNSGSIGHADSVK | VGRGGGYFDG | ND / ND / ND | ND | 1 of 9 (4.90) |
| 44 | GFTFDDYAMH | GISWNSGSSGYATSVK | VGRGGGYWDY | 5.16 / ND / ND | 5.16 | 2 of 9 (4.73) |
| 45 | GFTFDDYAEH | GISENSGSIGYADSVK | VGRGGGYFDY | 5.37 / 4.94 / 4.95 | 5.09 | 4 of 9 (5.41) |

The 3 strongest on average among those seen in every replicate, once more:

| CDR-H1 | CDR-H2 | CDR-H3 | log10 Kd (nM) by replicate | mean log10 Kd (nM) | control signals |
|---|---|---|---|---|---|
| GFTFDDYAMH | GINWNSGAIGYADSVK | EGRGGGYFDY | 1.03 / 0.90 / 0.19 | 0.71 | 1 of 9 (4.96) |
| PFTPDDYAMH | GISWNSGIIGYADSVK | VGRGGGYFDY | 0.95 / 1.01 / 0.69 | 0.88 | 0 of 9 |
| GFTFRDYAMH | GISWNSGSIGYKDSVK | EGRGGGYFDY | 1.95 / 2.24 / 1.80 | 2.00 | 4 of 9 (4.83) |

The measurements come from Engelhart et al. 2022 (doi:10.1038/s41597-022-01779-4) through the FLAb antibody collection.